{"source": "patent US10106502B2", "about": "“Direct inhibitors of Keap1-Nrf2 interaction as antioxidant inflammation modulators” (Rutgers, The State University of New Jersey, priority 2011, dated 2018)", "tested_on": "CellSensor® ARE-bla Hep G2 cell line", "assay": "cell-based ARE β-lactamase reporter assay", "design": "species or system human"}
{"smiles": "O=C(O)[C@@H]1CCCC[C@@H]1C(=O)N1CCc2ccccc2[C@@H]1CN1C(=O)c2ccccc2C1=O", "note": "[LH601B]", "values": [{"measurement": "ARE-inducing activity (in words)", "value": "inactive"}]}
